What was measured:
lipase = experiment: Lipase/lipolysis assay (EnzChek Lipase Substrate, quenched BODIPY-fatty acid conjugate) on stored human milk; details: for Hit in lipase inhibition screen (in words): approximately 2700 compound screen, hit = RFU <400
glycerol = experiment: Glycerol-Glo assay of glycerol (byproduct of fat breakdown) in stored human milk; assay type: biochemical; details: human milk stored 1 week at −20° C.; for Glycerol (RLU): Table 7, single compound 20 mg/mL, inhibited if RLU <150,000
[1] = Table 7, single compound 20 mg/mL, human milk stored 1 week at −20° C., inhibited if RFU <400
[2] = Biolog PM1 compound added to fresh human milk, stored 1 week at −20° C., RFU <400 = hit
[3] = Biolog PM5 compound added to fresh human milk, stored 1 week at −20° C., RFU <400 = hit
[4] = human milk stored 1 week at −20° C.
[5] = Biolog PM2a compound added to fresh human milk, stored 1 week at −20° C., RFU <400 = hit
[6] = Food-Sourced Compound Library compound added to fresh human milk, stored 1 week at −20° C., thawed at room temperature, RFU <400 considered a hit
[7] = Food Additive Library compound added to fresh human milk, stored 1 week at −20° C., thawed at room temperature, RFU of <400 considered a hit
[8] = compound added to fresh human milk, stored 1 week at −20° C., thawed at room temperature, RFU <400 considered a hit
[9] = Biolog PM4 compound added to fresh human milk, stored 1 week at −20° C., RFU <400 = hit

Apple pectin
Lipase (RFU) (lipase; [1]): 838.974 RFU | Glycerol (RLU) (glycerol): 142165 RLU

Tween 20
Lipase (RFU) (lipase; [2]): 1219.614 RFU | Lipase (RFU) (lipase; [3]): 284.3494 RFU | Lipase (RFU) (lipase; [1]): 389.079 RFU | Hit in lipase inhibition screen (in words) (lipase; [4]): significantly inhibited lipase activity | Effect on lipase / lipolysis (in words) (lipase; [4]): reduced lipase and glycerol production | Glycerol (RLU) (glycerol): 94118 RLU | Effect on glycerol production (in words) (glycerol): reduced lipase and glycerol production

CC(=O)N[C@H]1[C@H]([C@H](O)[C@H](O)CO)OC(O)(C(=O)O)C[C@@H]1O (stereo partly drawn) [N-Acetyl-Neuraminic Acid]
Lipase (RFU) (lipase; [5]): 264.6242 RFU | Lipase (RFU) (lipase; Table 7, single compound 20 mg/mL, human milk stored 1 week at −20° C., inhibited if RFU <400, listed as N-Acetylneuraminic acid): 339.424 RFU | Lipase (RFU) (lipase; Table 7, single compound 20 mg/mL, human milk stored 1 week at −20° C., inhibited if RFU <400, listed as N-acetylneuraminic acid): 395.436 RFU | Hit in lipase inhibition screen (in words) (lipase; [4]): significantly inhibited lipase activity | Glycerol (RLU) (glycerol): 90612 RLU

C[C@@H]1CC[C@]2(C(=O)O)CC[C@]3(C)C(=CC[C@@H]4[C@@]5(C)CC[C@H](O)C(C)(C)[C@@H]5CC[C@]43C)[C@@H]2[C@]1(C)O [Pomolic acid]
Lipase (RFU) (lipase; [6]): 813.0722 RFU

CCCCCCC/C=C/C(=O)O [(E)-2-Decenoic acid]
Lipase (RFU) (lipase; [7]): 763.8796 RFU

Nc1ncnc2c1ncn2C1OC(COP(=O)(O)OP(=O)(O)OCC2OC(O)C(O)C2O)C(O)C1O (stereo not drawn) [Adenosine 5′-diphosphoribose (sodium)]
Lipase (RFU) (lipase; [6]): 1112.658 RFU

C=CCCCCCCCCCO [Compound 10-Undecen-1-ol, 10-Undecen-1-ol]
Lipase (RFU) (lipase; [7]): 785.5597 RFU

CC(=O)OC/C=C(C)/C=C/C=C(C)/C=C/C1=C(C)CCCC1(C)C [Retinyl acetate]
Lipase (RFU) (lipase; [7]): 989.0064 RFU

N[C@@H](CCC(=O)N[C@@H](CS)C(=O)O)C(=O)O [Gamma-glutamylcysteine]
Lipase (RFU) (lipase; [6]): 653.5504 RFU

O=C(O)/C=C/c1ccccc1 [trans-Cinnamic acid]
Lipase (RFU) (lipase; [8]): 967.1549 RFU

CCOCC(=O)O [Ethoxyacetic acid]
Lipase (RFU) (lipase; [8]): 998.8039 RFU

CCCCOC(=O)c1ccccc1C(=O)OCCCC [Dibutyl phthalate]
Lipase (RFU) (lipase; [8]): 1035.24 RFU

Liensinine (Diperchlorate)
Lipase (RFU) (lipase; [6]): 826.0249 RFU

COc1ccc(/C=C/C(=O)O)cc1O [Isoferulic acid]
Lipase (RFU) (lipase; [8]): 918.062 RFU

CC(=O)Nc1ccc(O[C@@H]2O[C@H](C(=O)O)[C@@H](O)[C@H](O)[C@H]2O)cc1 [Acetaminophen glucuronide]
Lipase (RFU) (lipase; [6]): 719.1638 RFU

O=C(C=Cc1ccccc1)OCc1ccccc1 [Benzyl cinnamate]
Lipase (RFU) (lipase; [7]): 969.7584 RFU | Lipase (RFU) (lipase; [6]): 938.2773 RFU

O=C[C@@H](O)[C@@H](O)[C@H](O)[C@H](O)COP(=O)(O)O [D-Mannose-6-Phosphate]
Lipase (RFU) (lipase; [9]): 906.9952 RFU

Nc1nc2c(ncn2[C@@H]2O[C@H](COP(=O)(O)O)[C@@H](O)[C@H]2O)c(=O)[nH]1 [Guanosine-5′-monophosphate]
Lipase (RFU) (lipase; [9]): 634.7352 RFU

CC(=O)OC/C=C(\C)CCC=C(C)C [Geranyl acetate]
Lipase (RFU) (lipase; [7]): 968.4874 RFU | Lipase (RFU) (lipase; [8]): 953.9453 RFU

NCCCC[C@H](NC1(CO)O[C@H](CO)[C@@H](O)[C@@H]1O)C(=O)O (stereo partly drawn) [Fructosyl-lysine]
Lipase (RFU) (lipase; [8]): 1233.156 RFU

O=C(O)CC(=O)O [Malonic Acid]
Lipase (RFU) (lipase; [5]): 792.7976 RFU

O=C1NS(=O)(=O)c2ccccc21 [Saccharin (sodium hydrate)]
Lipase (RFU) (lipase; [8]): 906.3655 RFU

CCOC(=O)CC(=O)O [3-Ethoxy-3-oxopropanoic acid]
Lipase (RFU) (lipase; [8]): 1065.464 RFU

O=C(O)CO [Glycolic Acid]
Lipase (RFU) (lipase; [2]): 806.0101 RFU

Cc1cn([C@@H]2O[C@H](CO)[C@@H](O)[C@H]2O)c(=O)[nH]c1=O [Compound 5-Methyluridine, 5-Methyluridine]
Lipase (RFU) (lipase; [6]): 808.3751 RFU

OC[C@H]1O[C@@H](n2cnc3c(O)ncnc32)C[C@@H]1O [2′-Deoxy Inosine]
Lipase (RFU) (lipase; [3]): 263.369 RFU | Hit in lipase inhibition screen (in words) (lipase; [4]): significantly inhibited lipase activity

C[C@H](CCC(=O)NCCS(=O)(=O)O)[C@H]1CC[C@H]2[C@@H]3CC[C@@H]4C[C@H](O)CC[C@]4(C)[C@H]3C[C@H](O)[C@]12C [Taurodeoxycholic acid (sodium hydrate)]
Lipase (RFU) (lipase; [8]): 1000.218 RFU

O=C(O)[C@H]1CCCCN1 [D-Pipecolinic acid]
Lipase (RFU) (lipase; [6]): 932.2114 RFU

O=C[C@H](O)[C@@H](O)[C@H](O)[C@H](O)COP(=O)(O)O [D-Glucose-6-Phosphate]
Lipase (RFU) (lipase; [2]): 1034.77 RFU | Lipase (RFU) (lipase; [9]): 847.6712 RFU

Nc1nc2c(ncn2[C@H]2C[C@H](O)[C@@H](CO)O2)c(=O)[nH]1 [2′-Deoxy Guanosine]
Lipase (RFU) (lipase; [3]): 811.6129 RFU

NCCCC(=O)O [γ-Aminobutyric acid]
Lipase (RFU) (lipase; [8]): 759.3982 RFU

CC1=C(/C=C/C(C)=C/C=C/C(C)=C/C=C/C=C(C)/C=C/C=C(C)/C=C/C2=C(C)CCCC2(C)C)C(C)(C)CCC1 [β-Carotene]
Lipase (RFU) (lipase; [1]): 816.493 RFU

N[C@@H](Cc1cc(I)c(Oc2ccc(O)c(I)c2)c(I)c1)C(=O)O [Liothyronine]
Lipase (RFU) (lipase; [6]): 924.5631 RFU

Reference: patent publication US12507703B2, “Methods, devices and compositions for preserving human milk” (The Trustees of Princeton University, priority 2023, dated 2025)
